Details: mice, 1 day: oral 2 g, subcutaneous 1 g, intravenous 0.3 g/kg; observed up to 90 days

In the case of `CC(=O)C=O` [methylglyoxal], the external toxic symptoms is reported as “No external toxic symptoms”.
